## Measured melting point values of organic chemicals

Data: OPERA 2.9 data sets, kmansouri/OPERA on GitHub.

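The OPERA project collected these measurements from public sources as training and test data for property models. A listed value is a point estimate from one report or more. Method, purity and exact conditions of the single measurements are not given. A value may pool stereoisomers or salt forms, and the file does not say which form was measured. Some entries may be limits or estimates that an upstream database listed as plain numbers.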

The melting point is given in degrees Celsius.
"n/a" marks a cell with nothing listed here.

| SMILES | name | melting point (°C) |
|---|---|---|
| Cc1ccc(C(=O)CCl)s1 | 2-Chloro-1-(5-methylthiophen-2-yl)ethan-1-one | 46 |
| O=[N+]([O-])c1ccc(N2CCNCC2)cn1 | 1-(6-nitropyridin-3-yl)piperazine | 148 |
| O=C(OOC(=O)c1ccc(Cl)cc1)c1ccc(Cl)cc1 | Peroxide, bis(4-chlorobenzoyl) | 137.5 |
| Cn1cccc1C(=O)CCl | 2-Chloro-1-(1-methyl-1H-pyrrol-2-yl)-ethanone | 35 |
| CCC(N)P(=O)(O)O (configuration not stated) | (1-Aminopropyl)phosphonic acid | 252 |
| COc1cc(OC)nc(Oc2cccc(Oc3nc(OC)cc(OC)n3)c2C(=O)O)n1 | Bispyribac | 149 |
| CC(C)[C@@]1(NC(=O)[C@@H]2C=C3c4cccc5[nH]cc(c45)C[C@H]3N(C)C2)O[C@@]2(O)[C@@H]3CCCN3C(=O)[C@H](Cc3ccccc3)N2C1=O | Ergocristine | 175 |
| CC(=O)CCc1ccc2c(c1)OCO2 | 4-(1,3-Benzodioxol-5-yl)butan-2-one | 53 |
| Cc1ccc(CN)cn1 | (6-methylpyridin-3-yl)methanamine | 60 |
| CCNC(=O)NC(=O)CCl | 1-(2-Chloro-acetyl)-3-ethyl-urea | 139 |
| Brc1ccc(Oc2cc(Br)ccc2Br)c(Br)c1 | 2,2',4,5'-Tetrabromodiphenyl Ether | 20 |
| c1ccc2[nH]c(C3CCNCC3)nc2c1 | 2-(Piperidin-4-yl)-1H-benzimidazole | 254 |
| OCc1c(Cl)c(Cl)c(Cl)c(Cl)c1Cl | 2,3,4,5,6-Pentachlorobenzenemethanol | 193 |
| COC(=O)c1occc1CBr | methyl 3-(bromomethyl)-2-furoate | 51 |
| C[C@@H]1C[C@H](O)[C@]2(O)O[C@@H]3C[C@@]4(C=O)[C@@H](CC[C@@H]5[C@@H]4CC[C@]4(C)[C@@H](C6=CC(=O)OC6)CC[C@]54O)C[C@H]3O[C@@H]2O1 | Calotropin | 223 |
| CCC1NC(=O)C2C(Cl)C(Cl)CN2C(=O)C(CO)NC(=O)CC(c2ccccc2)NC(=O)C(CO)NC1=O (configuration not stated) | Cyclochlorotine | 251 |
| COc1ccc2c3c1O[C@H]1[C@@H](O[C@@H]4O[C@H](C(=O)O)[C@@H](O)[C@H](O)[C@H]4O)C=C[C@H]4[C@@H](C2)N(C)CC[C@@]341 | Codeine-6-glucuronide | 249 |
| Clc1ccc(-c2ccccc2Cl)cc1 | 2,4'-Dichlorobiphenyl | 43 |
| NCCc1nc2ccccc2s1 | 2-(1,3-benzothiazol-2-yl)ethanamine | 48 |
| Clc1ccc(C(c2ccccc2Cl)C(Cl)(Cl)Cl)cc1 (configuration not stated) | o,p'-DDT | 74 |
| CC1=NNC(=O)C1(Br)Br | 4,4-Dibromo-3-methyl-2-pyrazolin-5-one | 130.5 |
| C1=C(c2c[nH]c3ncccc23)CCNC1 | 3-(1,2,3,6-Tetrahydropyridin-4-yl)-1H-pyrrolo[2,3-b]pyridine | 182 |
| CC(C)(C)n1cc(C(=O)O)cn1 | 1-tert-Butyl-1H-pyrazole-4-carboxylic acid | 156 |
| COc1ccccc1NC1=NCCCS1 | N-(2-Methoxyphenyl)-5,6-dihydro-4H-1,3-thiazin-2-amine | 84 |
| CN(C)CCN=C=S | 2-Isothiocyanato-N,N-dimethylethan-1-amine | 36 |
| CCC1(CC=C(C)C)C(=O)NC(=O)NC1=O | 5-Ethyl-5-(3'-methylbut-2'-enyl)barbituric acid | 158 |
| Nc1nnc(N)s1 | 1,3,4-Thiadiazole, 2,5-diamino- | 193 |
| O=C(CCl)Nc1ccccc1I | 2-chloro-N-(2-iodophenyl)acetamide | 39 |
| Nc1nnns1 | 1,2,3,4-thiatriazol-5-amine | 121 |
| Clc1ccc(Cl)c(-c2ccccc2)c1 | 2,5-Dichlorobiphenyl | 23 |
| NCC(O)c1ccc(F)cc1 (configuration not stated) | 2-amino-1-(4-fluorophenyl)ethanol | 66 |
| N#Cc1ccc(/C=C/C(=O)O)cc1 | (2E)-3-(4-Cyanophenyl)-2-propenoic acid | 251 |
| Clc1ccc(-c2ccc(Cl)c(Cl)c2)c(Cl)c1 | n/a | 128 |
| Brc1cc(Br)c(-c2ccccc2)c(Br)c1 | PBB 030 | 66 |
| CC(C)(C)NC(=O)NC(=O)CCl | 1-tert-Butyl-3-(2-chloro-acetyl)-urea | 110 |

Extract of 2 entries:

| SMILES | name | melting point (°C) |
|---|---|---|
| N#Cc1ccc(/C=C/C(=O)O)cc1 | (2E)-3-(4-Cyanophenyl)-2-propenoic acid | 251 |
| Brc1cc(Br)c(-c2ccccc2)c(Br)c1 | PBB 030 | 66 |